Results on 1 compound are retold here after paper PMC4132742, “Inhibition of RNA binding to hepatitis C virus RNA-dependent RNA polymerase: a new mechanism for antiviral intervention” (Nucleic Acids Research, 2014).

Amino acid sequences for entries named in this document (tags omitted). Residues count along the entry.
UniProt O92972, 2420-2989, stated change not applied: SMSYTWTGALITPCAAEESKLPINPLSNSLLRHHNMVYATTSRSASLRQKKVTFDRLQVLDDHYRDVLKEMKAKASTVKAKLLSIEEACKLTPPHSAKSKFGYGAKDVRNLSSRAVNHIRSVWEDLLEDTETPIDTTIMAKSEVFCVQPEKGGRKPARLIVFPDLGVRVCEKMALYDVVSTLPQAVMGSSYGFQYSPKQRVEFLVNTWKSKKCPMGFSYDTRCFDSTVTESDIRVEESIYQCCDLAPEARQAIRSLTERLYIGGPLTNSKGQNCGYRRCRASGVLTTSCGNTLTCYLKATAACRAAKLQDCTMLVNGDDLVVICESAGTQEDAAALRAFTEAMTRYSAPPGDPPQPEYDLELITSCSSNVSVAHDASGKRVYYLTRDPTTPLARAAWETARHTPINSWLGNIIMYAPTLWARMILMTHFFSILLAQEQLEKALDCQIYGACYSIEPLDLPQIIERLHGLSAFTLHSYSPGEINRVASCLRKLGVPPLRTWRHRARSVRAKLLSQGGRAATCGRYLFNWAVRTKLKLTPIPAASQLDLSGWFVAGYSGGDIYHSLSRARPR

One data set in a line: in vitro. Particulars: human.
Data set [1] addresses HCV-NS5BΔ21 RdRp genotype 1b (strain J4) (Hepatitis C virus genotype 1b, UniProt O92972). Particulars: HCV genotype 1b RdRp, data not shown.

The structures appear in SMILES notation.

In the case of `O=c1c(O)c(-c2ccc(O)c(O)c2)oc2cc(O)c(O)c(O)c12` [Quercetagetin], the selectivity ratio at 3 days in the data set “in vitro” came out at 32.9. In addition, the “activity relative to silibinin” value in data set [1] was 19 times.
